Assay results as given in ChEMBL document CHEMBL5042474, “Structure-Guided Discovery of Potent and Selective DYRK1A Inhibitors” (J Med Chem, 2021).

The chains behind the UniProt entries cited, without tags or fusion partners. Where a name states a change or a piece, a line headed by the entry shows the natural chain unless it says otherwise.
UniProt P49760, whole entry, looked up: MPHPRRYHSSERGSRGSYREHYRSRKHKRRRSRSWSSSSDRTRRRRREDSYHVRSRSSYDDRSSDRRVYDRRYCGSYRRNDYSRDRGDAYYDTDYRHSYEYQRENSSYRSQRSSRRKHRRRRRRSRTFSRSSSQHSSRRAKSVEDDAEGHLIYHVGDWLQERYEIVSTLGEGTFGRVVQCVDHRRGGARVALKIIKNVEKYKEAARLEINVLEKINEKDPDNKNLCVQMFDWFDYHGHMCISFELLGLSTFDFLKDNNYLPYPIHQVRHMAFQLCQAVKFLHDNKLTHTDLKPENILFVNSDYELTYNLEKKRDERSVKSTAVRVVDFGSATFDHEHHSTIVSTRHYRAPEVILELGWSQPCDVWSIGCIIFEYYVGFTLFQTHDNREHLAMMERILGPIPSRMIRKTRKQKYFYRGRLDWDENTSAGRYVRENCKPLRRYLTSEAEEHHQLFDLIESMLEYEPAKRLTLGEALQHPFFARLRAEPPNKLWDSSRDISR
UniProt Q9Y463, whole entry, looked up: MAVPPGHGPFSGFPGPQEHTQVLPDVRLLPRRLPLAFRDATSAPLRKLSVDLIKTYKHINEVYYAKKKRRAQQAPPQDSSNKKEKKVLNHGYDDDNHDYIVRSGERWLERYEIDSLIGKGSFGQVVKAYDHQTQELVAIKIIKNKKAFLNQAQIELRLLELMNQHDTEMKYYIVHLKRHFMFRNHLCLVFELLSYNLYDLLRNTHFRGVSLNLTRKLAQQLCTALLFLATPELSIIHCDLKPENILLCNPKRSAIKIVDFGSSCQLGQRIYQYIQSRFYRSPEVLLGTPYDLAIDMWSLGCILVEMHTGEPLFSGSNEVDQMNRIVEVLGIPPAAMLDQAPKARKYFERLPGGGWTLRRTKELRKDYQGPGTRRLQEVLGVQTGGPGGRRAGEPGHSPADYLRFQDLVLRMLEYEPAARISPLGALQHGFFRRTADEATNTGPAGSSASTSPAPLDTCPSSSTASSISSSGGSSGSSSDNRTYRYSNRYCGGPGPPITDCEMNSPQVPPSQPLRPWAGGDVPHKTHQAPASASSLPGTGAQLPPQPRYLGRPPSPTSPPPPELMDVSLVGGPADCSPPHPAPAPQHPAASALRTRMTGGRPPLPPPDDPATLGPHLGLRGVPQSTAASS
UniProt Q9HAZ1: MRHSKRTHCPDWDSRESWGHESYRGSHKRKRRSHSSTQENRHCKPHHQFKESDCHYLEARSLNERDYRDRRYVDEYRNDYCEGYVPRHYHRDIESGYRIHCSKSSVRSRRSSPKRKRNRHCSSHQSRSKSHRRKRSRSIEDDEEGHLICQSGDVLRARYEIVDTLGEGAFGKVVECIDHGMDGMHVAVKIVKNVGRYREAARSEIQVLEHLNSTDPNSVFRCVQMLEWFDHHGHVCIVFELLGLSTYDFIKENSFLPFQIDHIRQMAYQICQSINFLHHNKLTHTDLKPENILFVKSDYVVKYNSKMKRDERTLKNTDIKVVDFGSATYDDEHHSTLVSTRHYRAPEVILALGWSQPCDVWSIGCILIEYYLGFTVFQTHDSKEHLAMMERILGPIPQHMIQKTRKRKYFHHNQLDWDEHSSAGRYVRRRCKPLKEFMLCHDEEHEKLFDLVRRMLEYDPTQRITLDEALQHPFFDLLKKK
UniProt P49759: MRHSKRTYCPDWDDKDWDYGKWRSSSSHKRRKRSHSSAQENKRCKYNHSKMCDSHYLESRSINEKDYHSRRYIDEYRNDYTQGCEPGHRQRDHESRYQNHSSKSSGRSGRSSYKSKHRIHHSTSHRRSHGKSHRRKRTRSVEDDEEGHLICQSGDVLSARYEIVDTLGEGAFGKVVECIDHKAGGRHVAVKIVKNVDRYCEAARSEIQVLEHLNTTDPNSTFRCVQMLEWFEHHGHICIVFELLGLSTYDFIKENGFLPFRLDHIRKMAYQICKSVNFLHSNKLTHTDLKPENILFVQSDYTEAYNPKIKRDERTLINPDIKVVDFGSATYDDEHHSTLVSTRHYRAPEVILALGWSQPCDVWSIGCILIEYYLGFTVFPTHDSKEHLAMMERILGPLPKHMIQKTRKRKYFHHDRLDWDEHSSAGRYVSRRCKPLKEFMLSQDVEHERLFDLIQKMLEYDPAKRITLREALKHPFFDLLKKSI

How the values were obtained:
[1] = biological target: Dual specificity protein kinase CLK2 (Homo sapiens) (UniProt P49760); assay: Binding affinity to CLK2 (unknown origin) assessed as binding constant
[2] = biological target: Dual specificity tyrosine-phosphorylation-regulated kinase 1B (Homo sapiens) (UniProt Q9Y463); assay: Binding affinity to DYRK1B (unknown origin) assessed as binding constant
[3] = biological target: Dual specificity protein kinase CLK4 (Homo sapiens) (UniProt Q9HAZ1); assay: Binding affinity to CLK4 (unknown origin) assessed as binding constant
[4] = biological target: Dual specificity protein kinase CLK1 (Homo sapiens) (UniProt P49759); assay: Binding affinity to CLK1 (unknown origin) assessed as binding constant

- K [1]: 5.7 nM
- K [2]: 0.76 nM
- K [3]: 3.2 nM
- K [4]: 4.7 nM
Structure (SMILES): Cc1nc2ccc(-c3cc(N)nc(N)c3)nc2n1C1CC1
